In patent US9096492B2, “Hydrated N-fullerene amino acids, method for producing the latter, and pharmaceutical compositions on the basis thereof” (priority 2011, dated 2015):

Columns and labels:
[1] = Acute toxicity in rats after a single intramuscular injection; format: in vivo, Wistar rats
[2] = rat, in vivo
[3] = rat, in vivo; remark: listed apart in the source

N-fullerene tris(δ-aminocaproic acid) hydrate [Agent 1]
Animal body weight (M ± SD) ([1]; females, 5 mg/kg single intramuscular, day 7): 183 ± 15.0 g | Animal body weight (M ± SD) ([1]; females, 5 mg/kg single intramuscular, day 14): 206 ± 17.0 g | Animal body weight (M ± SD) ([1]; females, 50 mg/kg single intramuscular, day 7): 177 ± 17.5 g | Animal body weight (M ± SD) ([1]; females, 50 mg/kg single intramuscular, day 14): 201 ± 15.8 g | Animal body weight (M ± SD) ([1]; females, 500 mg/kg single intramuscular, day 14): 198 ± 10.3 g | Animal body weight (M ± SD) ([1]; males, 5 mg/kg single intramuscular, day 0): 188 ± 12.5 g | Animal body weight (M ± SD) ([1]; males, 50 mg/kg single intramuscular, day 0): 190 ± 14.3 g | Animal body weight (M ± SD) ([1]; males, 500 mg/kg single intramuscular, day 0): 189 ± 14.1 g | Animal body weight (M ± SD) ([1]; males, 500 mg/kg single intramuscular, day 7): 207 ± 19.3 g | Avg. erythr. volume., Mcm ([2]; 3 mg/kg): 55.2 ± 4.6 Mcm | Avg. erythr. volume., mcm ([2]; 3 mg/kg): 52.0 ± 1.6 mcm | Leukocytes ths/mm^3 ([2]; 3 mg/kg): 21.4 ± 4.7 ths/mm^3 | Leukocytes, ths/mm^3 ([2]; 3 mg/kg): 22.0 ± 6.8 ths/mm^3 | Avg. erythr. volume., Mcm ([2]; 9 mg/kg): 52.4 ± 1.5 Mcm | Avg. erythr. volume., mcm ([2]; 9 mg/kg): 53.4 ± 4.6 mcm | Leukocytes ths/mm^3 ([2]; 9 mg/kg): 20.4 ± 8.8 ths/mm^3 | Leukocytes, ths/mm^3 ([2]; 9 mg/kg): 19.6 ± 2.5 ths/mm^3 | Avg. erythr. volume., Mcm ([2]; 20 mg/kg): 52.2 ± 3.4 Mcm | Leukocytes ths/mm^3 ([2]; 20 mg/kg): 19.7 ± 3.2 ths/mm^3 | Leukocytes, ths/mm^3 ([2]; 20 mg/kg): 24.8 ± 6.2 ths/mm^3 | Weight coefficients of viscera, Testicles [3]: 9.7 ± 1.2 g/kg body weight | Weight coefficients of viscera, Testicles ([3]; 3 mg/kg): 10.4 ± 1.3 g/kg body weight

Like-named read-outs stand apart in the source and are kept apart here.
